Source: ChEMBL document CHEMBL1128202, “Identification of a series of 3-(benzyloxy)-1-azabicyclo[2.2.2]octane human NK1 antagonists” (J Med Chem, 1995)
pIC50: −log10 of the molar value.

Sequences of proteins named here, by UniProt entry; tags and fusion partners are left off.
UniProt P25103, whole entry: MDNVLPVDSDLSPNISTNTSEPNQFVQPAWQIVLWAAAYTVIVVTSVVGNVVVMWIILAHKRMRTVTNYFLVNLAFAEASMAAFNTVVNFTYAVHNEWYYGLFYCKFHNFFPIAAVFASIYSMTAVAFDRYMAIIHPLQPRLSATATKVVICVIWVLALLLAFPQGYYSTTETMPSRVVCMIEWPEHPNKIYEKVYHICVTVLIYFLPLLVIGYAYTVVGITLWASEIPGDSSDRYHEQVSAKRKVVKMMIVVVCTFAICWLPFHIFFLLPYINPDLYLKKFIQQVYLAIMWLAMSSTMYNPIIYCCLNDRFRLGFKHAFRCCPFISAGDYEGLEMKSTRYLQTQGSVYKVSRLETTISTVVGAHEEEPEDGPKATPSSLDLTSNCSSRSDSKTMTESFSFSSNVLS

These compounds were tested against Substance-P receptor (Homo sapiens, UniProt P25103) (assay: Inhibition of binding of [125I]SP to the CHO cell line expressing human Tachykinin receptor 1).
Assay type: cell-based
With `COc1ccc(COC2C3CCN(CC3)C2C(c2ccccc2)c2ccccc2)cc1` (stereo not drawn) the pIC50 was 5.95.
Compound `Cc1cc(C)cc(COC2C(=Cc3ccccc3)N3CCC2CC3)c1` (stereo not drawn) has a pIC50 of 6.92.
`Cc1cc(C)cc(COC2/C(=C/c3ccccc3)N3CCC2CC3)c1` (stereo not drawn) was tested, and the pIC50 was 5.53.
